The record followed here is ChEMBL document CHEMBL5120858, “Structure-activity relationship and antitumor activity of 1,4-pyrazine-containing inhibitors of histone acetyltransferases P300/CBP” (Eur J Med Chem, 2022).

By UniProt entry, the sequences of proteins in these tests, tags left out.
UniProt Q09472, whole entry: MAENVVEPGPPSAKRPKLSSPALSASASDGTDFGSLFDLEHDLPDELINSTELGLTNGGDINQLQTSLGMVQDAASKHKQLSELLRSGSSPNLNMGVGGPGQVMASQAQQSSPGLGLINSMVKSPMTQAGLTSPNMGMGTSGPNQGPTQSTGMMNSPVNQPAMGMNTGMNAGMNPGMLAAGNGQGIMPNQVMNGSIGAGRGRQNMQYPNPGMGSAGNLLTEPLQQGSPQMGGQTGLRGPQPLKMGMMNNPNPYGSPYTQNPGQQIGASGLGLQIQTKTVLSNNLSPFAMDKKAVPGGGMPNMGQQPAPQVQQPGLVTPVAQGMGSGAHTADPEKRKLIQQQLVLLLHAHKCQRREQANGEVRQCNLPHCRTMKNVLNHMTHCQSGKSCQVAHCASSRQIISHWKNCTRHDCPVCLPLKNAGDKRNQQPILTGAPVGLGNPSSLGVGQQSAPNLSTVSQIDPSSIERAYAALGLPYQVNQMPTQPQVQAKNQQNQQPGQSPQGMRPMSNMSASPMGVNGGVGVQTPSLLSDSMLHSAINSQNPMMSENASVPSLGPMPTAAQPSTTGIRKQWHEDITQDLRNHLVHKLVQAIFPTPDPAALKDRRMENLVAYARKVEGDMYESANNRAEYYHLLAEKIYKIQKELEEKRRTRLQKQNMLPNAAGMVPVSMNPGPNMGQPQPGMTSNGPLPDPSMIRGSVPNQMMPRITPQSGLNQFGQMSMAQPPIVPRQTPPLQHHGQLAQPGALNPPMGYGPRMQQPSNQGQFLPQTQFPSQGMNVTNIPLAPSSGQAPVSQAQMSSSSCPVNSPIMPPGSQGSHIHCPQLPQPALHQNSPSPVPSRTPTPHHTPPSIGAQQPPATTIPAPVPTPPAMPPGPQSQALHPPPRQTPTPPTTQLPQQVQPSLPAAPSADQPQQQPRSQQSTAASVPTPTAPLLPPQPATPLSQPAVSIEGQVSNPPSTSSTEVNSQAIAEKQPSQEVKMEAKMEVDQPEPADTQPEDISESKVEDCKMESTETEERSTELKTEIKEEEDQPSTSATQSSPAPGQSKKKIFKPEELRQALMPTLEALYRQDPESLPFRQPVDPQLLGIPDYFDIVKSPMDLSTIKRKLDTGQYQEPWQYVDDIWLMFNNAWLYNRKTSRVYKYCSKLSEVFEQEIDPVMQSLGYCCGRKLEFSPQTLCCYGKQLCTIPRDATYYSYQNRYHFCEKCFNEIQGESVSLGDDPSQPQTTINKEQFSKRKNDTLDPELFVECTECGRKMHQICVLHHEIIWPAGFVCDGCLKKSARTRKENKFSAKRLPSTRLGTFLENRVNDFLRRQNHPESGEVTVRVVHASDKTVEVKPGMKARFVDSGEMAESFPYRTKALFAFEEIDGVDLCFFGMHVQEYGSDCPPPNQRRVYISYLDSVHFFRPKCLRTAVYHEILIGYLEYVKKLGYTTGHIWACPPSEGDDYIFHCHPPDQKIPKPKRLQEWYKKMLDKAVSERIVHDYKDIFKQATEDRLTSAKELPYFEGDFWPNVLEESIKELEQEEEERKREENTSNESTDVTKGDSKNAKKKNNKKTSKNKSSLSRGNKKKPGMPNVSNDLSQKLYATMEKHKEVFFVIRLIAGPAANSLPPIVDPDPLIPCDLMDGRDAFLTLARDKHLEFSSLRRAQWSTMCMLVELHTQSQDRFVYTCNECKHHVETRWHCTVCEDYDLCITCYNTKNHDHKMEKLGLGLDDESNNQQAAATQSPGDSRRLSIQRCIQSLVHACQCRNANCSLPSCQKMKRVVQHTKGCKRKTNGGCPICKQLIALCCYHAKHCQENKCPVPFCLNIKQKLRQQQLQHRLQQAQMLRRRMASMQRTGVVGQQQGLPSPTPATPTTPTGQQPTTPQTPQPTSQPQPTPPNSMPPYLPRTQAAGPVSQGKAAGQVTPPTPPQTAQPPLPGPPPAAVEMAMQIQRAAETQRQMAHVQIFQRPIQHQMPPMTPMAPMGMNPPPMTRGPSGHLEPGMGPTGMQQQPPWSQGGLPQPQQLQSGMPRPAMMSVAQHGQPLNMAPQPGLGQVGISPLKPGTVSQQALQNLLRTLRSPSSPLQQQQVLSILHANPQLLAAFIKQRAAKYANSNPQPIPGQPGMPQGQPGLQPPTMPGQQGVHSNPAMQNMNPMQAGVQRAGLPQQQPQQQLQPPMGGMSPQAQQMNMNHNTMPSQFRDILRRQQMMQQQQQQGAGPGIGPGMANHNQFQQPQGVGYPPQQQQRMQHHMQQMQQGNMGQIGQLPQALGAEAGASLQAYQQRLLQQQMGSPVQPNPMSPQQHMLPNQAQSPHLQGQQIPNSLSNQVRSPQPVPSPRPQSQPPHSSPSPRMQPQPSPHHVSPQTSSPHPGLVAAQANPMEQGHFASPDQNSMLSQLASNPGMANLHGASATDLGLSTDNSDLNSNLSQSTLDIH

This test concerns the target Histone acetyltransferase p300 (Homo sapiens, UniProt Q09472). Kind of test: Inhibition of human p300 HAT domain (1195 to 1673 residues) at 10 uM using histone H3 peptide and acetyl-coA as substrates preincubated for 10 mins followed by substrate addition and measured after 30 mins by beckman scintillation counting analysis relative to control. Particulars: time 40.0 min. An outline of the steps:
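Single-concentration screen at 10 μM in the radiometric p300 HAT domain assay: enzyme 10 nM, pH 7.0 phosphate/Brij-35, 10 min preincubation, then H3(1-21) peptide 20 μM plus ³H/unlabelled Ac-CoA (20 μM total), 30 min at 25 °C. Filter-bound ³H-acetylated peptide was counted, and the value is given as % inhibition.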

`Brc1ccc(-c2ncc(OCC3CCNC3)nc2-c2ccc(Br)cc2)cc1` (configuration not stated): the inhibition (commonly the relative decrease from the control value, in per cent) was 42.7%.
Turning to `NC1CCC(COc2cnc(-c3ccc(Br)cc3)c(-c3ccc(Br)cc3)n2)CC1` (configuration not stated), the inhibition was 59.1%.
In the case of `NCCCCOc1cnc(-c2ccc(Br)cc2)c(-c2ccc(Br)cc2)n1`, the inhibition came to 21.2%.
`NCCCOc1cnc(-c2ccc(Br)cc2)c(-c2ccc(Br)cc2)n1` had an inhibition of 35.4%.
Turning to `Clc1ccc(-c2ncc(OCC3CCNCC3)nc2-c2ccc(Cl)cc2)cc1`, the inhibition was determined as 41%.
Then `CNCCCCOc1cnc(-c2ccc(Br)cc2)c(-c2ccc(Br)cc2)n1`, with 19.1%.
Then `CN(C)Cc1ccc(-c2ncc(OCC3CCNCC3)nc2-c2ccc(CN(C)C)cc2)cc1`, with 46.3%.
